Molecular target: GPR73 (prokineticin 1 receptor) (Homo sapiens, UniProt Q8TCW9)
Assay: PK1 functional assay: Ca2+ mobilization screening for PK1 antagonists on the FLIPR
Conditions: HEK 293 GPR73 cells, multiple values = multiple testing
Experimental: At a time of 24 h prior to running the assay, in cell culture media (DMEM containing high Glucose and L-glutamine, 10% FBS, 1% Pen/Streptomycin, 1% Sodium Pyruvate, 20 mM HEPES, Zeocin 200 mg/L), 100 μL of 1.3*10^6/ml HEK 293 GPR73 (prokineticin 1 receptor) expressing cells were plated in a 96 well poly-d-lysine coated plate (Costar), and incubated at 37 C and 5% CO2. On the day in which the assay was run, the media was removed and 200 μL of 5× Calcium Plus Dye (Molecular Devices) which was previously resuspended with 200 mL of assay buffer [HBSS w/Ca^2+ and Mg^2+ w/o phenol red, 20 mM HEPES, 0.1% BSA, 10 mL probenecid (710 mg probenecid in 5 mL of 1N NaOH, to which was then added 5 mL HBSS containing 20 mM HEPES)] was added to each well of the 96-well plate. The plate was incubated at 37 C and 5% CO2 for 30 min in dark. The plate was removed and allowed to reach RT for 15 min in the dark. The assay was then run on the FLIPR. In Brief: base line read for 1 min, compound added (25 μL) and incubated for 4 min, 15 seconds, PK1 ligand preparation added (25 μL) for a final concentration of a previously determined EC50 and fluorescence was counted for 1 min, 45 seconds. Baseline is described as the amount of relative fluorescence read when buffer alone is added to cells. Baseline was subtracted from all wells. Percent of control was calculated as follows: […]

By UniProt entry, the sequences of proteins in these tests, tags left out.
UniProt Q8TCW9, whole entry: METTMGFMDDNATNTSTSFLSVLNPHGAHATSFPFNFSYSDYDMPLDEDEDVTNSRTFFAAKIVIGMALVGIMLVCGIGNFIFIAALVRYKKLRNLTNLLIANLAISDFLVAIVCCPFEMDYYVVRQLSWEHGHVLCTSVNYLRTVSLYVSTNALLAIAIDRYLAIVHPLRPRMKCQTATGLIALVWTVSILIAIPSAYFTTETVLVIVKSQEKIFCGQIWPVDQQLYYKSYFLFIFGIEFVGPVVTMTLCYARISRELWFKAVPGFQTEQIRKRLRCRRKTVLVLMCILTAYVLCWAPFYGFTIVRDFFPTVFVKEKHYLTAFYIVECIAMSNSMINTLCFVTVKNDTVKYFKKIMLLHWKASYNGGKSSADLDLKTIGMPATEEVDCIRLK

Nc1ncccc1CNc1nc(=O)n(Cc2ccc(OC(F)F)cc2)c(=O)n1Cc1ccc(OC(F)F)cc1
Ca^2+ Mobilization % Inh @ 10 μM (10 μM compound): 62%
IC50 (read-out: Ca^2+ Mobilization IC50, PK1 ligand preparation at its EC50): 4.5 µM

Reference: patent US20080287445A1, “Prokineticin 2 receptor antagonists” (priority 2005, published 2008)
